# Assay results from patent US12390423B2, “Avocatin B for the treatment of diseases and conditions” (priority 2019, dated 2025).
# Settings: skeletal muscle (soleus and gastrocnemius) and pancreas; printed as human subjects
substance,measurement,value
avocatin B [AvoB],Tissue accumulation following oral administration,accumulated in both skeletal muscle (soleus and gastrocnemius) and pancreas
